Assay: Solubility (qualitative remark)
Conditions: relative to parent indirubins / 3′-oximes

Substance: 6′-Bromo-indirubin-3′-oxime [13a]
- solubility (in words): increased solubility

From US20070276025A1, “Indirubin-Type Compounds, Compositions, and Methods for Their Use” (priority 2003, published 2007)
